Assays:
A431 cells (EGFR WT) = experiment: A431 cell proliferation inhibition assay (CellTiter-Glo); type: cell-based; conditions: read-out: A431 EGFR WT IC50, 72 h
Method: A431 Cell Proliferation Inhibition Assay
In the assay, the inhibition effect of the compounds on the proliferation of A431 cells was tested by adopting a CellTiter-Glo method, and the concentration IC50 of the compound for inhibiting half maximal growth of cells was obtained.
A431 cells, purchased from ATCC.
DMEM medium, fetal bovine serum (FBS), and Penicillin-Streptomycin, purchased from GIBCO.
(§1) Brigatinib, purchased from Selleck.
(§2) CellTiter-Glo reagent, purchased from Promega.
1) A431 cells were seeded in a 384-well plate at a density of 800 cells/well with 30 μL/well, and the plate was cultured in a cell incubator for 24 h (37° C., 5% CO2).
(§3) 2) Day 0: […] of gradiently-diluted compounds to be tested with a final concentration of DMSO of 0.1% was added to plate using Echo, and the plate was incubated in a cell incubator for 72 h (37° C., 5% CO2). […] of DMSO was added into each well in blank control group.
(§4) 3) Day 3: 30 μL Cell Titer-Glo reagent was added to each well, and the plate was in the dark under room temperature for 30 min.
(§5) 4) The chemiluminescent signal was detected by an Envision plate reader (PerkinElmer).
(§6) 5) Data analysis was performed using GraphPad Prism software to give the IC50 for compounds.

Chains of the proteins cited; added tags and fusions are not shown. Lines headed by an entry give the natural chain unless they say otherwise; changes in a name come on top. Residues count along the entry.
UniProt P00533, 25-1210 limits assumed: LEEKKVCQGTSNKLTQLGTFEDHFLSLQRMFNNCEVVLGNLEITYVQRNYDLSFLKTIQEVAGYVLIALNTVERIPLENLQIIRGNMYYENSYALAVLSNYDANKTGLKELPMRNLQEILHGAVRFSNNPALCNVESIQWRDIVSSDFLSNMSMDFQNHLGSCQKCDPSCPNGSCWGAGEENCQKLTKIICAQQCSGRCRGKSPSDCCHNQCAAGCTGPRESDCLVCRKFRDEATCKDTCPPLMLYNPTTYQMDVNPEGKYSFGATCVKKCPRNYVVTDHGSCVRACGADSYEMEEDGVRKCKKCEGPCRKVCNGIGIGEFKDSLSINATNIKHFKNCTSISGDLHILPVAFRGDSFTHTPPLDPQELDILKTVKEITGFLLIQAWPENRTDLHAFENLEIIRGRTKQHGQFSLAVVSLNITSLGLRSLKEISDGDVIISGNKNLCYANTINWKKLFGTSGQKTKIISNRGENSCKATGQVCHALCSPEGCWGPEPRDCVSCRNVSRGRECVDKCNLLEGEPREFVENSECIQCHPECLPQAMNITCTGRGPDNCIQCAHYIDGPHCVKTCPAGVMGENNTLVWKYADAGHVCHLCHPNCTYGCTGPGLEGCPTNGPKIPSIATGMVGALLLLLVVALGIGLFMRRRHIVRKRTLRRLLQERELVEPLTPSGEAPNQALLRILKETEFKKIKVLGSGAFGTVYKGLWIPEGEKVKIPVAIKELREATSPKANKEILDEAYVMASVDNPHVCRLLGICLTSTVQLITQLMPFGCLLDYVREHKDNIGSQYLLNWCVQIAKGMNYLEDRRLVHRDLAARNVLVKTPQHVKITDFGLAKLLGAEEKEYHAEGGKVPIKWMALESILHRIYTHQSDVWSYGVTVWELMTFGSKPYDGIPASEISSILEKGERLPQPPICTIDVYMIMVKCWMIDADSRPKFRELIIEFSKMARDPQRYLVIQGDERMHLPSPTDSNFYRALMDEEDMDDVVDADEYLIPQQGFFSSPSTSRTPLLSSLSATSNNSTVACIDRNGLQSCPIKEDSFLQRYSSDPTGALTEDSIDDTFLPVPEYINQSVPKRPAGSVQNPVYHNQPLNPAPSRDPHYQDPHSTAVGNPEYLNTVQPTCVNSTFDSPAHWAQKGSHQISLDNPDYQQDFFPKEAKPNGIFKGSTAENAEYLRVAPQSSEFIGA
UniProt P00533, 25-1210 T790M/C797S/L858R limits assumed: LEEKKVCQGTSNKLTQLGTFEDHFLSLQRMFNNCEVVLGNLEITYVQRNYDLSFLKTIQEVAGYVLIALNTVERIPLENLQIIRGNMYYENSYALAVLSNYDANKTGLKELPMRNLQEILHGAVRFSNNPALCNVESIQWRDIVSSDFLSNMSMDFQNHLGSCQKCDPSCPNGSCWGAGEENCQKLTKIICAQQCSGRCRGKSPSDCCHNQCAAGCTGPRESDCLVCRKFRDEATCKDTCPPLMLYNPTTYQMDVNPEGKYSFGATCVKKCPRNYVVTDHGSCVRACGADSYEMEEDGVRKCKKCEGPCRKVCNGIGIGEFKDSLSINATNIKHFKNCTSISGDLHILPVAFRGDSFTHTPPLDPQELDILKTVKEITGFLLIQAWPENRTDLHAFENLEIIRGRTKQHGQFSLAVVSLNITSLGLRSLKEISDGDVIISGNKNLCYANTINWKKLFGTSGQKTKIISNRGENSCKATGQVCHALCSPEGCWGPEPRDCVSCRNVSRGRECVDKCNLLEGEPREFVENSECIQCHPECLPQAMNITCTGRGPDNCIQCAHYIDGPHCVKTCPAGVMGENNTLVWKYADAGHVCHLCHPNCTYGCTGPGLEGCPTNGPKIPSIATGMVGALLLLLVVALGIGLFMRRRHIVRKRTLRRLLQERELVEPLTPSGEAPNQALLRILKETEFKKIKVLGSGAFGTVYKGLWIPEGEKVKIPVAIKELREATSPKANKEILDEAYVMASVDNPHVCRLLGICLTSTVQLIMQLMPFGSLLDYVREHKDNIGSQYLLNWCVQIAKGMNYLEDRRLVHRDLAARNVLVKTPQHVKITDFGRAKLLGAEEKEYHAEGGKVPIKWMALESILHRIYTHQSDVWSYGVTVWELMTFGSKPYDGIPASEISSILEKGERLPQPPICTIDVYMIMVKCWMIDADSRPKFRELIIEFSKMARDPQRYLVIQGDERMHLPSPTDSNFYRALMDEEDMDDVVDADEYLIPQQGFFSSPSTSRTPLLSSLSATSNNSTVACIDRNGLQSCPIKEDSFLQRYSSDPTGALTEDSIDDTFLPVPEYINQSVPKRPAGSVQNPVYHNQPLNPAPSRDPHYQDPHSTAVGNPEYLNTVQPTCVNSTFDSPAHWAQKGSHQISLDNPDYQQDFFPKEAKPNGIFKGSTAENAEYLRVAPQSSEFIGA

EGFR L858R/T790M/C797S = EGFR L858R/T790M/C797S (Homo sapiens (Human), UniProt P00533, C797S/L858R/T790M); experiment: In vitro enzymatic TR-FRET (HTRF KinEASE-TK) kinase assay, EGFR L858R/T790M/C797S; type: biochemical; conditions: read-out: EGFR (L858R/T790M/C797S) IC50, kinase activity
Method: (§7) (I) In Vitro Enzymatic Experiment for EGFR WT and EGFR L858R/T790M/C797S
(§8) In the assay, the inhibition effect of the compound on the kinase activity of EGFR WT (wild type EGFR) and EGFR L858R/T790M/C797S was tested by adopting a time-resolved fluorescence resonance energy transfer (TR-FRET) method, and half maximal inhibitory concentration IC50 of the compound on the kinase activity of EGFR was obtained.
(§9) EGFR recombinase and EGFR L858R/T790M/C797S recombinase, purchased from Signalchem.
(§10) HTRF KinEASE-TK kit, purchased from Cisbio.
(§11) DTT, MnCl2, and MgCl2, purchased from Sigma.
(§12) ATP, purchased from Promega.
as §1
(§13) 1) 1× working solution was prepared: 5 mM MgCl2; 1 mM DTT; 1 mM MnCl2 and 1× kinase buffer (in kit).
(§14) 2) […] of gradiently-diluted compound was transferred to a 384-well plate using Echo 550 (Labcyte).
(§15) 3) 5 μL of 2× EGFR WT or EGFR L858R/T790M/C797S recombinase solution was added to the 384-well plate, and the plate was incubated at room temperature for 10 min.
(§16) 4) 5 μL of 2× TK-substrate-biotin substrate solution (containing ATP) was added to the 384-well plate, and the plate was incubated at room temperature for 40 min. […]
(§17) 6) The fluorescence signal values at 615 nm and 665 nm were measured for each well using an Envision microplate reader (PerkinElmer).
(§18) 7) The ratio of fluorescence signal values at 665 nm and 615 nm was calculated for each well. […]

[1] = system: Ba/F3_L858R/T790M/C797S cells; experiment: Ba/F3_L858R/T790M/C797S cell proliferation inhibition assay (CellTiter-Glo); type: cell-based; conditions: read-out: Ba/F3 (L858R/T790M/C797S) IC50, 72 h
Method: Ba/F3_L858R/T790M/C797S Cell Proliferation Inhibition Assay
In the assay, the inhibition effect of the compounds on the proliferation of Ba/F3_L858R/T790M/C797S cells was tested by adopting a CellTiter-Glo method, and the concentration IC50 of the compound for inhibiting half maximal growth of cells was obtained.
Ba/F3_L858R/T790M/C797S cells were constructed by Pharmaron Beijing Co., Ltd.
1640 medium, fetal bovine serum (FBS), Penicillin-Streptomyces, and GlutaMAX-I Supplement, purchased from GIBCO.
as §1, §2
1) Ba/F3_L858R/T790M/C797S cells were seeded in a 384-well plate at a density of 700 cells/well with 30 μL/well.
as §3, §4, §5, §6

[2] = system: Ba/F3_Del19/T790M/C797S cells; experiment: Ba/F3_Del19/T790M/C797S cell proliferation inhibition assay (CellTiter-Glo); type: cell-based; conditions: read-out: Ba/F3 (Del19/T790M/C797S) IC50, 72 h
Method: Ba/F3_Del19/T790M/C797S Cell Proliferation Inhibition Assay
In the assay, the inhibition effect of the compounds on the proliferation of Ba/F3_Del19/T790M/C797S cells was tested by adopting a CellTiter-Glo method, and the concentration IC50 of the compound for inhibiting half maximal growth of cells was obtained.
Ba/F3_Del19/T790M/C797S, purchased from Kyinno Biotechnology Co., Ltd. 1640 medium, fetal bovine serum (FBS), Penicillin-Streptomyces, and GlutaMAX-I Supplement, purchased from GIBCO.
as §1, §2
1) Ba/F3_Del19/T790M/C797S cells were seeded in a 384-well plate at a density of 700 cells/well with 30 μL/well.
as §3, §4, §5
Data analysis was performed using GraphPad Prism 6 software to give the IC50 for compounds.

EGFR WT (wild type EGFR) = EGFR WT (wild type EGFR) (Homo sapiens (Human), UniProt P00533); experiment: In vitro enzymatic TR-FRET (HTRF KinEASE-TK) kinase assay, EGFR WT; type: biochemical; conditions: read-out: EGFR (WT) IC50, kinase activity
Method: as §7, §8, §9, §10, §11, §12, §1, §13, §14, §15, §16, §17, §18

IC50 (A431 cells (EGFR WT)) [µM] | IC50 [1] [µM] | IC50 [2] [µM] | Compound | IC50 (EGFR L858R/T790M/C797S) [µM] | IC50 (EGFR WT (wild type EGFR)) [µM]
0.01 to 0.05 | < 0.01 | < 0.01 | COc1cc2c(cc1Nc1ncc(Br)c(Nc3ccc4nccnc4c3P(C)(C)=O)n1)-c1cnn(C)c1CCN2C1CCCN(C)C1 (single isomer, unassigned) [117A] | – | –
0.05 to 0.1 | 0.01 to 0.05 | < 0.01 | COc1cc2c(cc1Nc1ncc(Br)c(Nc3ccc4nccnc4c3P(C)(C)=O)n1)-c1cnn(C)c1CCN2C1CCCN(C)C1 (single isomer, unassigned) [117B] | – | –

Compound | IC50 (A431 cells (EGFR WT)) [µM] | IC50 [1] [µM] | IC50 [2] [µM] | IC50 (EGFR L858R/T790M/C797S) [µM] | IC50 (EGFR WT (wild type EGFR)) [µM]
COc1cc2c(cc1Nc1ncc(Br)c(Nc3ccccc3N(C(C)C)S(C)(=O)=O)n1)-c1cnn(C)c1CCN2C | 0.1 to 1 | 0.01 to 0.05 | 0.01 to 0.05 | 0.001 to 0.01 | 0.01 to 0.05

From patent US20240034743A9, “TRICYCLIC COMPOUNDS AS EGFR INHIBITORS” (QILU PHARMACEUTICAL CO., LTD., priority 2020, published 2024)
